The values below are quoted from earlier work in article PMC7854685, “Histone Parylation factor 1 contributes to the inhibition of PARP1 by cancer drugs” (Nature Communications, 2021).

The chains behind the UniProt entries cited, without tags or fusion partners.
UniProt P09874, whole entry: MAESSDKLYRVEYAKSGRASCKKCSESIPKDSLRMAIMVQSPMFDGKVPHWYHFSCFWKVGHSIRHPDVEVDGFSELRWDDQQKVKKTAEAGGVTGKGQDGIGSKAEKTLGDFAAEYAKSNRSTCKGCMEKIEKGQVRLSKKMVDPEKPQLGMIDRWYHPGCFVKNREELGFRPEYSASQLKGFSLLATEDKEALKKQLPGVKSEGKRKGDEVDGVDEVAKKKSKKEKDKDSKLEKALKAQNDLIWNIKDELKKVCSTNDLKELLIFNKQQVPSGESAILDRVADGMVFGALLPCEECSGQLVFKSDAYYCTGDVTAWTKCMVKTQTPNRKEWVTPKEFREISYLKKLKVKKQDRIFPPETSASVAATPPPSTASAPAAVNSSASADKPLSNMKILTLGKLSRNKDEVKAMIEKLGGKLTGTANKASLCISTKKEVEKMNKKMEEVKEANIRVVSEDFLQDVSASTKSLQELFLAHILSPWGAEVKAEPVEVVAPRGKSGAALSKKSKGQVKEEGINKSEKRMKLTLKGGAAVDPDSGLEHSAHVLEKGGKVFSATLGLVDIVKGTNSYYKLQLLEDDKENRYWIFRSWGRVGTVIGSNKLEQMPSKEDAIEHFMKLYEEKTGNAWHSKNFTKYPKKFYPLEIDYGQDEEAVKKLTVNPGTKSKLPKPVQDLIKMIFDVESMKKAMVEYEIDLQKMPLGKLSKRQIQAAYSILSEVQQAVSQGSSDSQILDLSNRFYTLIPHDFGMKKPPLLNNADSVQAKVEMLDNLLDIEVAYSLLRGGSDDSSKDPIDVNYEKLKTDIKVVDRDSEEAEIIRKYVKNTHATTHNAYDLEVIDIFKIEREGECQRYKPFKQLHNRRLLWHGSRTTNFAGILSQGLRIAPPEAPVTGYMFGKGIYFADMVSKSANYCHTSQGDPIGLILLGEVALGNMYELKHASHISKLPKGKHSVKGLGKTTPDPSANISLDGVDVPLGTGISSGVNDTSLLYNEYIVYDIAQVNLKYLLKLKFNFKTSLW

The target of the data set is PARP1 (Homo sapiens, UniProt P09874). As to conditions: cited from earlier work.

For the molecule `Cn1ncnc1[C@H]1c2n[nH]c(=O)c3cc(F)cc(c23)N[C@@H]1c1ccc(F)cc1` [Talazoparib], the PARP-trapping entry is given as “strong”.
